{"source": "patent US8697661B2", "about": "“Use of spinosyns and spinosyn compositions against herpesviridae viral infections” (priority 2009, dated 2014)", "key": {"[1]": {"tested_on": "Herpes Simplex Virus type 1, McIntyre (HSV1)", "assay": "Viral Plaque Reduction Assay / inhibition of infection assay, HSV1 in Vero cells", "format": "cell-based", "conditions": "10 μg/ml spinosad, day 2"}, "[2]": {"tested_on": "Vero cells", "assay": "Toxicity assay on Vero cells", "format": "cell-based, African Green Monkey", "conditions": "10 μg/ml spinosad"}}}
{"substance": "Spinosad", "values": [{"measurement": "plaque size relative to same virus dilution with no spinosad", "setting": "[1]", "result": "one third the size"}, {"measurement": "toxicity to Vero cells", "setting": "[2]", "result": "no toxicity"}]}
